Sampled rows, rich in hits. Any-hit rate of the full collection: about 3.7%.
p53 reactivation = mutant p53 re-activation in reporter cells; H1299 p53-A138V BP100-luciferase reporter, luminescence, 24 h; Potency, µM (doses to about 92.2 µM), usual class: activators; 320,000 tested, 0.063% active; note: nearly all actives have a fitted effect of over 45% in size
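p53-null H1299 cells stably carrying temperature-sensitive p53-A138V and a BP100-luciferase reporter were pinned with compounds (4-point, 1:5 series) and held 24 hrs at 37 deg C. Luminescence was read 10 min after detection reagent.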
A549 tox = counter-screen for Nrf2 inhibitors: cytotoxicity in A549 cells; A549 ARE-Fluc cells, CellTiter-Fluor viability, 18-24 h; Potency, µM (doses to about 46 µM), most hits filed as inhibitors; 390,000 tested, 0.16% active; AID 504648
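Cytotoxicity counterscreen: CellTiter-Fluor fluorescence was measured in A549 ARE_Fluc cells after 18-24 h of compound exposure in a concentration series. The subsequent BugLite luminescent read reports ARE-luciferase activity.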
Nrf2 block = inhibitors of Nrf2 signaling; 360,000 tested, 2.1% active; A549 ARE-Fluc reporter, luciferase luminescence, 18-24 h; Potency, µM (highest dose often 46 µM), actives largely listed as inhibitors; note: nearly all actives have a fitted effect of over 60% in size
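A549 ARE_Fluc cells, 5000/well, 5% FBS OPTI-MEM; compounds in dose-response, 18-24 h at 37 °C/5% CO2; CellTiter-Fluor viability read (Ex 405/Em 525), then BugLite luciferase luminescence = Nrf2 activity.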
ClpP mod = qHTS Assay for Activators of ClpP; purified B. subtilis ClpP, FRET peptide cleavage, 20 min; Potency, µM (series often up to 57.5 µM); ATP-dependent Clp protease proteolytic subunit (Bacillus subtilis (strain 168)), P80244; 340,000 tested, 1.9% active; AID 651965, 2013; active = well fitted falling curve with a large enough effect; inconclusive = small, poorly fitted or top-dose-only effect; inactive = no such curve, though single readings can be large or run the other way; note: the source files actives as falling curves though it sought activators and does not explain the sign; nearly all actives have a fitted effect of over 65% in size
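Purified B. subtilis ClpP, 10 microg/mL final in Tris/HCl pH8 with KCl, BSA, glycerol and Tween-20, cleaved an Abz/nitrotyrosine-quenched decapeptide. Fluorescence (ex 320, em 430) was read at 0 and 20 min at room temperature. Delta was normalized to 5.8 microM ADEP and DMSO/no-enzyme controls.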
miR-21 FLuc = miR-21 reporter, rising signal. HeLa miR-21 FLuc reporter, luciferase, 48 h. Potency, µM (titrated, usually from 38.3 µM). 340,000 tested, under 10 active. AID 2288; active = well fitted rising curve with a large enough effect; inconclusive = small, poorly fitted or top-dose-only effect; inactive = no such curve, though single readings can be large or run the other way;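 also: miR-21 action dims this reporter so a rising signal means less miR-21 action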
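Compounds were titrated across several concentrations (up to approximately 40 uM) and incubated 48 hours with HeLa miR-21-FLuc reporter cells (miR-21 target sequence downstream of FLuc, endogenous miR-21). Readout was firefly luciferase luminescence after lytic detection reagent.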
Nrf2 activator = activators of Nrf2 (ARE) signaling | AREc32 ARE-luciferase reporter (MCF7-derived line), luminescence, 24 h | AID 624171 | 410,000 tested, 0.31% active | Potency, µM (titrated, usually from 46.1 µM), hits mostly activators; note: nearly all actives have a fitted effect of over 65% in size
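AREc32 cells carrying an ARE-driven firefly luciferase, 1000 cells/well in OPTI-MEM with 5% FBS, dosed after overnight attachment and incubated 24 hr at 37 deg C. Steady-Glo luminescence read after 30 min at RT.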
Hits are given with their value; n = inactive; u = inconclusive; x = no result; [ ] = dose if it differs, or a comment. Unless noted, calls come from the whole dose curve; as a rule, active = well fitted curve in the direction sought with a large enough effect; inconclusive = small, poorly fitted or top-dose-only effect, or another doubt; inactive = no such curve, though single readings can be large; an effect the other way counts as inactive or inconclusive.

By UniProt entry, the sequences of proteins in these tests, tags left out.
ATP-dependent Clp protease proteolytic subunit (Bacillus subtilis (strain 168)), P80244, UniProt P80244, whole entry, looked up: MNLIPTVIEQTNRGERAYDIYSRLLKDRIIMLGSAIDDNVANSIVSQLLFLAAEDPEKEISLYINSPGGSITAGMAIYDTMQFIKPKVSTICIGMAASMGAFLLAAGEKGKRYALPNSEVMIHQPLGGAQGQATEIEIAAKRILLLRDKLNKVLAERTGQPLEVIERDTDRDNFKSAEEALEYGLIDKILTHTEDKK

SMILES	p53 reactivation	A549 tox	Nrf2 block	ClpP mod	miR-21 FLuc	Nrf2 activator
O=S(=O)(c1cccc(C(F)(F)F)c1)N1CCC(Oc2ccc(-n3cnnn3)cc2)CC1	x	u	18.4µM	n	n	n
O=S(=O)(c1ccccc1)N1CCC(Oc2ccc(-n3cnnn3)cc2)CC1	n	n	u	x	n	n
COc1ccc(Cn2nnnc2CN2CCC(c3nc4ccccc4s3)CC2)cc1	n	n	23.1µM	n	n	n
O=C(O)CN(c1ccccn1)S(=O)(=O)c1ccccc1	n	n	n	28.2µM	n	n
COC(=O)CN(c1ccccn1)S(=O)(=O)c1ccccc1	n	n	n	11.2µM	n	n
O=C(O)CN(c1ccccn1)S(=O)(=O)c1ccc(Cl)cc1	n	n	n	u	n	n
COC(=O)CN(c1ccccc1F)S(=O)(=O)c1ccccc1	n	n	n	n	n	n
COC(=O)c1sc(N2C(=O)c3oc4ccccc4c(=O)c3C2c2ccc(O)cc2)nc1C (stereo not given)	x	n	n	n	n	n
CCOc1ccc2nc(NCCNC(=O)Nc3cccc(C)c3)c(C#N)cc2c1	n	n	u	15.8µM	n	n
CCOc1ccc2nc(NCCNC(=O)Nc3ccccc3)c(C#N)cc2c1	n	u	n	n	n	n
O=C1CC(O)(C(F)F)Oc2ccc3ccccc3c21 (stereo not given)	n	n	n	25.1µM	n	n
Cc1ccc(O)c(NC(=O)c2cc(C)no2)c1	n	n	u	x	n	12.6µM
COc1ccc(Cl)cc1NC(=O)c1cnccn1	n	n	n	n	n	12.6µM
COc1ccc(Cl)cc1NC(=O)c1cc(C)no1	n	n	n	x	n	8.91µM
Cc1ccc(NC(=O)c2c3c(nc4ccccc24)C(=O)N(C2CCCCC2)C3)cc1F	x	n	n	n	n	n
O=C(Nc1ccc(-c2nc3ncccc3o2)cc1)c1ccco1	n	n	n	28.2µM	n	n
Cc1ccccc1OCc1nc(-c2ccc(NC(=O)c3ccco3)cc2)no1	u	n	x	28.2µM	n	n
Cc1ccc(-c2nnc(-c3ccc(NC(=O)c4ccco4)cc3)o2)cc1	n	n	n	31.6µM	n	n
CCN(C(=O)C(=O)Nc1ccc2nc3n(c(=O)c2c1)CCCCC3)c1ccc(F)cc1	x	n	n	n	n	n
O=C1CSC(c2cn(-c3ccccc3)nc2-c2cc3ccccc3oc2=O)N1Cc1ccco1 (stereo not given)	n	x	n	31.6µM	n	n
O=C1CSC(c2cn(-c3ccccc3)nc2-c2cc3ccccc3o2)N1Cc1ccccc1 (stereo not given)	n	n	n	n	n	n
CCc1ccc(-c2nc(CSCC(=O)NCc3ccccc3OC)c(C)o2)cc1	x	n	n	n	n	n
CSc1ccc(-c2nc(CSCC(=O)NCCCN3CCOCC3)c(C)o2)cc1	n	n	n	35.5µM	n	n
CCOc1ccc(-c2nc(CSCC(=O)NCc3ccc(Cl)cc3)c(C)o2)cc1	x	n	x	n	n	n
Cc1ccc(-c2nc(CS(=O)CC(=O)NCc3ccccc3Cl)c(C)o2)cc1 (stereo not given)	x	n	n	n	n	n
SMILES	p53 reactivation	A549 tox	Nrf2 block	ClpP mod	miR-21 FLuc	Nrf2 activator
Cc1ccc(CNC(=O)CSCc2nc(-c3ccc(Cl)cc3)oc2C)cc1	x	n	20.6µM	u	n	n
Cc1oc(-c2ccc(Cl)cc2)nc1CSCC(=O)NCc1ccccc1Cl	x	n	x	31.6µM	n	n
Cc1oc(-c2cccc(Cl)c2)nc1CSCC(=O)NCc1ccccc1Cl	x	u	23.1µM	n	n	n
Cc1ccc(-c2nc(CSCC(=O)NCCCN3CCOCC3)c(C)o2)cc1	n	n	n	n	n	n
Cc1ccc2c(c1)C(c1ccccc1)N(C(=O)COc1ccc(Cl)cc1Cl)CC(=O)N2 (stereo not given)	x	n	n[9.27 µM]	n	u	n
COc1cc(N(C)C)ccc1/C=C/c1ccnc2ccccc12	x	x	x	n	x	x
Brc1ccccc1-c1nnc2sc(Cc3ccccc3)nn12	n	u	n	n	n	n

Source: PubChem
